# Cyclic peptide permeability, from CycPeptMPDB

Source: CycPeptMPDB (Li et al. 2023), which took these values from Townsend et al. 2020, doi:10.26434/chemrxiv.13335941.v1.

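Lipid, pH, incubation time, direction and concentration are not recorded in the data file. The list need not hold all peptides of the study. Peptides that the database sets to -10, its floor, are left out.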

PAMPA is the parallel artificial membrane permeability assay, which has no cells and reads passive diffusion.
P is given in units of 10^-6 cm/s (from log10 values with two decimals); larger means faster passage.

| SMILES | PAMPA (10^-6 cm/s) |
|---|---|
| CC(C)C[C@@H]1NC(=O)C[C@H](Cc2ccccc2)NC(=O)[C@H]2CCCN2C(=O)[C@H](Cc2ccccc2)NC(=O)CN(Cc2ccccc2)C(=O)[C@H]2CCCN2C(=O)[C@@H](CC(C)C)N(C)C1=O | 0.91 |
| CC(C)C[C@@H]1C(=O)N[C@@H](Cc2ccccc2)C(=O)N2CCC[C@@H]2C(=O)N[C@@H](C)C(=O)N(C)[C@@H](CC(C)C)C(=O)N(C)[C@@H](CC(C)C)C(=O)N2CCC[C@H]2C(=O)N1C | 0.87 |
| CC(C)C[C@@H]1C(=O)N[C@@H](Cc2ccccc2)CC(=O)N2CCC[C@H]2C(=O)N(C)[C@H](CC(C)C)C(=O)N[C@@H](Cc2ccccc2)C(=O)N2CCC[C@H]2C(=O)N(C)[C@H](C)C(=O)N1C | 1.2 |
| CC(C)C[C@@H]1C(=O)N(Cc2ccccc2)CC(=O)N2CCC[C@H]2C(=O)N(C)[C@H](CC(C)C)C(=O)N[C@@H](Cc2ccccc2)C(=O)N[C@@H](C)C(=O)N1C | 1.7 |
| CC(C)C[C@@H]1C(=O)N[C@@H](Cc2ccccc2)C(=O)N2CCC[C@H]2C(=O)N(C)[C@@H](C)C(=O)N[C@H](CC(C)C)C(=O)N(Cc2ccccc2)CC(=O)N2CCC[C@H]2C(=O)N1C | 0.56 |
| CC(C)C[C@H]1NC(=O)[C@@H]2CCCN2C(=O)[C@@H](CC(C)C)NC(=O)CN(Cc2ccccc2)C(=O)[C@H](C)N(C)C(=O)[C@H](Cc2ccccc2)NC1=O | 10 |
| CC(C)C[C@@H]1C(=O)N[C@@H](Cc2ccccc2)C(=O)N(C)[C@@H](C)C(=O)N(C)[C@H](CC(C)C)C(=O)N[C@@H](Cc2ccccc2)CC(=O)N2CCC[C@@H]2C(=O)N1C | 6.5 |
| CCCN1CC(=O)N[C@@H](CC(C)C)C(=O)N[C@H](CC(C)C)C(=O)N2CCC[C@@H]2C(=O)N[C@@H](CC(C)C)C(=O)N[C@@H](Cc2ccccc2)C(=O)N2CCC[C@@H]2C1=O | 1.5 |
| CC(C)C[C@@H]1C(=O)N[C@H](CC(C)C)C(=O)N2CCC[C@H]2C(=O)N(Cc2ccccc2)CC(=O)N[C@@H](Cc2ccccc2)C(=O)N2CCC[C@H]2C(=O)N(C)[C@@H](C)C(=O)N1C | 6.8 |
| CC(C)C[C@H]1NC(=O)[C@H](C)NC(=O)[C@H](Cc2ccccc2)NC(=O)CN(Cc2ccccc2)C(=O)[C@@H]2CCCN2C(=O)CN(Cc2ccccc2)C1=O | 0.39 |
| CCCN1CC(=O)N[C@H](CC(C)C)C(=O)N[C@@H](Cc2ccccc2)CC(=O)N2CCC[C@@H]2C(=O)N[C@@H](CC(C)C)C(=O)N[C@@H](Cc2ccccc2)C(=O)N2CCC[C@@H]2C1=O | 0.26 |
| CC(C)C[C@@H]1NC(=O)C[C@H](Cc2ccccc2)NC(=O)[C@H](Cc2ccccc2)NC(=O)[C@@H](CC(C)C)N(C)C(=O)[C@H]2CCCN2C(=O)[C@@H](CC(C)C)N(C)C1=O | 5.1 |
| CCCN1CC(=O)N(C)[C@H](CC(C)C)C(=O)N[C@@H](Cc2ccccc2)CC(=O)N2CCC[C@@H]2C(=O)N[C@H](CC(C)C)C(=O)N[C@@H](Cc2ccccc2)C(=O)N2CCC[C@H]2C1=O | 0.19 |

The 2 highest values of PAMPA among the entries above:

{"smiles": "CC(C)C[C@H]1NC(=O)[C@@H]2CCCN2C(=O)[C@@H](CC(C)C)NC(=O)CN(Cc2ccccc2)C(=O)[C@H](C)N(C)C(=O)[C@H](Cc2ccccc2)NC1=O", "PAMPA (10^-6 cm/s)": "10"}
{"smiles": "CC(C)C[C@@H]1C(=O)N[C@H](CC(C)C)C(=O)N2CCC[C@H]2C(=O)N(Cc2ccccc2)CC(=O)N[C@@H](Cc2ccccc2)C(=O)N2CCC[C@H]2C(=O)N(C)[C@@H](C)C(=O)N1C", "PAMPA (10^-6 cm/s)": "6.8"}